Measured values from EP4806900A2, “RAS INHIBITORS” (Revolution Medicines, Inc., priority 2019, dated 2021).

Each molecule was assayed on NCI-H358 (K-Ras G12C) (assay: CellTiter-Glo cell viability assay, NCI-H358). Settings: read-out: H358 Cell Viability assay data (K-Ras G12C, IC50); Table 5.
Format: cell-based, human

| Structure (SMILES) | IC50 |
| --- | --- |
| CCn1c(-c2cncnc2)c2c3cc(ccc31)-c1cccc(c1)C(OC)[C@H](NC(=O)[C@H](C(C)C)N(C)C(=O)[C@H]1CCN(C(=O)C#CCN3CCOCC3)C1)C(=O)N1CCC[C@H](N1)C(=O)OCC(C)(C)C2 (stereo partly shown) | > 1000 nM |
| CCn1c(-c2cccnc2[C@H](C)OC)c2c3cc(ccc31)-c1cccc(c1)C[C@H](NC(=O)[C@H](C(C)C)N1CC[C@]3(CCN(C(=O)C#C[C@@H]4COCCN4C4COC4)C3)C1=O)C(=O)N1CCC[C@H](N1)C(=O)OCC(C)(C)C2 | 10 to 100 nM |
| CCn1c(-c2cccnc2COC)c2c3cc(ccc31)-c1cc(O)cc(c1)C[C@H](NC(=O)[C@H](C(C)C)N(C)C(=O)[C@H]1CCN(C(=O)C#CC(C)(C)N(C)C)C1)C(=O)N1CCC[C@H](N1)C(=O)OCC(C)(C)C2 | < 10 nM |
| CCn1c(-c2cccnc2COC)c2c3cc(ccc31)-c1cc(C)cc(c1)C[C@H](NC(=O)[C@@H](C(C)C)N(C)C(=O)[C@H]1CCN(C(=O)C#CCN(C)C)C1)C(=O)N1CCC[C@H](N1)C(=O)OCC(C)(C)C2 | 10 to 100 nM |
| C=CC(=O)N(C)[C@H]1C[C@@H]1N(C)C(=O)N(C)[C@H](C(=O)N[C@H]1Cc2nc(cs2)-c2ccc3c(c2)c(c(-c2cccnc2[C@H](C)OC)n3CC)CC(C)(C)COC(=O)[C@@H]2CCCN(N2)C1=O)C(C)C | < 10 nM |
| CCn1c(-c2cccnc2[C@H](C)OC)c2c3cc(ccc31)-c1cccc(c1)C[C@H](NC(=O)[C@H](C(C)C)N1CC[C@]3(CCN(C(=O)C#C[C@]4(N(C)C)CCOC4)C3)C1=O)C(=O)N1CCC[C@H](N1)C(=O)OCC(C)(C)C2 | < 10 nM |

Further lines, results first:

| IC50 | Structure (SMILES) |
| --- | --- |
| 10 to 100 nM | C=CC(=O)N1CC[C@H](C(=O)N(C)[C@H](C(=O)N[C@H]2Cc3cc(O)cc(c3)-c3ccc4c(c3)c(c(-c3cccnc3[C@H](C)OC)n4C)CC(C)(C)COC(=O)[C@@H]3CCCN(N3)C2=O)C(C)C)C1 |
| > 1000 nM | C=CC(=O)N1CC[C@H](C(=O)N(C)[C@H](C(=O)NC2CC3CN(CCO3)c3ccc4c(c3)c(c(-c3cccnc3[C@H](C)OC)n4CC)CC(C)(C)COC(=O)[C@@H]3CC(Br)CN(N3)C2=O)C(C)C)C1 (stereo partly shown) |
| 10 to 100 nM | C=CC(=O)N1CC2C(C1)C2C(=O)N(C)[C@H](C(=O)N[C@H]1Cc2cc(O)cc(c2)-c2ccc3c(c2)c(c(-c2cccnc2[C@H](C)OC)n3CC)CC(C)(C)COC(=O)[C@@H]2CCCN(N2)C1=O)C(C)C (stereo partly shown) |
| > 1000 nM | C=CC(=O)N1CC[C@H](C(=O)N(C)[C@H](C(=O)NC2CC3CN(CCO3)c3ccc4c(c3)c(c(-c3cccnc3[C@H](C)OC)n4CC)CC(C)(C)COC(=O)[C@@H]3CCCN(N3)C2=O)C(C)C)C1 (stereo partly shown) |
| 100 to 1000 nM | C=CC(=O)N1CC[C@H](C(=O)N(C)[C@H](C(=O)N[C@H]2Cc3cccc(c3)-c3ccc4c(c3)c(c(-c3cccnc3[C@H](C)OC)n4CC)CC(C)(C)COC(=O)[C@@H]3CCCN(O3)C2=O)C(C)C)C1 |
| > 1000 nM | C=CC(=O)N1CC[C@H](C(=O)N(C)[C@H](C(=O)NC2CC3CN(CCO3)c3ccc4c(c3)c(c(-c3cccnc3COC)n4CC)CC(C)(C)COC(=O)[C@@H]3CCCN(N3)C2=O)C(C)C)C1 (stereo partly shown) |
| < 10 nM | C=CC(=O)N1CCC(C#N)(C(=O)N(C)[C@H](C(=O)N[C@H]2Cc3cccc(c3)-c3ccc4c(c3)c(c(-c3cccnc3[C@H](C)OC)n4CC)CC(C)(C)COC(=O)[C@@H]3CCCN(N3)C2=O)C(C)C)C1 (stereo partly shown) |
